Activation data for ten molecules are collected here from PubChem BioAssay AID729 (The Scripps Research Institute Molecular Screening Center, 2007).

Amino acid sequences for entries named in this document (tags omitted).
UniProt O95136, whole entry: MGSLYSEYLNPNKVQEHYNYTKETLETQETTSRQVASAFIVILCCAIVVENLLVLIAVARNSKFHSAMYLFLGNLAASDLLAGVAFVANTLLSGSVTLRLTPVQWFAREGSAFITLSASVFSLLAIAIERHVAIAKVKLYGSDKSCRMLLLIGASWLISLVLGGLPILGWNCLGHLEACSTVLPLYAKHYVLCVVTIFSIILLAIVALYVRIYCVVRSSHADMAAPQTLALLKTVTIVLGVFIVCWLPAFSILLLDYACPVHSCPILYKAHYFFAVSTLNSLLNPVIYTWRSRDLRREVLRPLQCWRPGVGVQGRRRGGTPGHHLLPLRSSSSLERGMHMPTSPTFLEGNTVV

Only a part is listed here, and it is no random draw. Calls of active or inactive are those of the source. No stated cut-off is given here; in the data, active means activation above about 16%; inactive means the rest.

The target in this assay is Sphingosine 1-phosphate receptor 2 (Homo sapiens) (UniProt O95136). The assay is described as follows: activation of human S1P2 receptor – cell-based, primary screen (AID 729).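 Further: 0% = vehicle low control and 100% = maximal reference agonist.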 To be noted: S1P2-expressing cell line, agonist reporter read-out; at 4.5 µM; stronger effect = higher value.
Regarding `N#CC1(Nc2ccccc2)CCN(CCc2ccccc2)CC1`, the activation is inactive: -4.9%.

As for `O=C(NCC1(N2CCOCC2)CCCCC1)c1cc(=O)[nH]c2ccccc12`, the activation was inactive: -7.82%. With `CN1CCC(Nc2cccc(F)c2)CC1` the figure was inactive: -2.94%; with `O=C(OC1CN2CCC1CC2)C1c2ccccc2Oc2ccccc21` (stereo not given), inactive: 0.32%.

Turning to `O=C(NCC1(N2CCOCC2)CCCCC1)c1cc2ccccc2o1`, the activation was inactive: -5.94%. Then `COc1ccc(NC2CCN(CCc3ccccc3)CC2)c(OC)c1`, with inactive: -6.41%.

For the molecule `CCOc1ncccc1C(=O)NCC1(N2CCOCC2)CCCCC1`, the activation was inactive: -4.7%.

`CCC(CO)(C(=O)OC1CN2CCC1CC2)c1ccccc1` (stereo not given): the activation is inactive: -4.21%. Then `N/C(=N\O)c1c(N)no[n+]1[O-]`, with inactive: -5.7%. Then `c1ccc(CN2CCC(Nc3ccccc3)CC2)cc1`, with inactive: -8.53%.
